Earlier results in paper PMC3341490 (Nuclear Medicine and Biology, 2012).

System: GRPR-expressing, PC-3 xenografted tumors in SCID mice
Conditions: 1 hour; linker between NOTA and BN(7-14); ref [19]

Substance: ^64Cu-NO2A-AMBA-BN(7-14)
- PC-3 tumor uptake: 6.05 % ID/g
